The source of these data is ChEMBL document CHEMBL1126893, “Synthesis and CLOGP correlation of imidooxy anticonvulsants” (J Med Chem, 1993).

This test is filed under the species Mus musculus. As to the kind of experiment: Protective index (TD50/ED50) value in MES test in mice. It counts as functional. The essentials: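 Phase II quantification in mice after ip dosing. ED50 (scMet or MES) measured at the time of peak effect. TD50 (rotorod neurologic deficit) measured at the time of peak neurologic deficit. Medians and 95% confidence limits by the Litchfield-Wilcoxon method. Protective index = TD50/ED50. Time of peak effect determined in the MES or scMet test.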

The compound `NC(=O)N1c2ccccc2C=Cc2ccccc21` [CARBAMAZEPINE] returned a PI of 8.1.
